target: Mitogen-activated protein kinase kinase kinase 14 (Homo sapiens, UniProt Q99558); assay: Inhibition of NIK (unknown origin) using ATP as substrate by transcreener ADP assay based fluorescence correlation spectroscopic analysis; format: single protein

Amino acid sequences for entries named in this document (tags omitted). A change or cut given only in a name is not applied to a line headed by its entry.
UniProt Q99558: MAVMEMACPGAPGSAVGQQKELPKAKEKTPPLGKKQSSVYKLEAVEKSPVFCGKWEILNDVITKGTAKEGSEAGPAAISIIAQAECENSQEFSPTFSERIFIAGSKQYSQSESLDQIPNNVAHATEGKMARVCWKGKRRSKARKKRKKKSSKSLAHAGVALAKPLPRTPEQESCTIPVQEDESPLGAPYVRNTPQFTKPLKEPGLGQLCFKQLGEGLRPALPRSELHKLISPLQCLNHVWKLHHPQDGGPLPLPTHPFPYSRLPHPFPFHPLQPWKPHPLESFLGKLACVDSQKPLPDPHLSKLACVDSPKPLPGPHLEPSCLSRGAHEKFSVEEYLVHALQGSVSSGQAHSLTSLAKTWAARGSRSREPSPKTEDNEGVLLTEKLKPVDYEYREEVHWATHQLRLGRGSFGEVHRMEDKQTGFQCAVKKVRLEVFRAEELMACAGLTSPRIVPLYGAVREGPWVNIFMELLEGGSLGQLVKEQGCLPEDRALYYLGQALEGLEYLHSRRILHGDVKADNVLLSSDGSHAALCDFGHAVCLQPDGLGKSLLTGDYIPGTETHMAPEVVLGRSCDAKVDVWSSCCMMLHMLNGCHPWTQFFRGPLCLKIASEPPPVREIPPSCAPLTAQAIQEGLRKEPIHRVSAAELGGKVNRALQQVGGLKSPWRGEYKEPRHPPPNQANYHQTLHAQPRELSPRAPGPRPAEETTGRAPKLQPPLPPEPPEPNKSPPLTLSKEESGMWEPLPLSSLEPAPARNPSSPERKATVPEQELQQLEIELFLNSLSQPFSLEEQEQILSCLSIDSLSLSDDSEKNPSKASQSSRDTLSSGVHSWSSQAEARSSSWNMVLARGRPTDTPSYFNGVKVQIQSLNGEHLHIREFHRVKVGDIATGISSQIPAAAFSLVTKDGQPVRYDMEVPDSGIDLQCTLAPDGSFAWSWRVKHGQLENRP

How did the Ki turn out when `Cc1cnc([C@@](C)(O)C#Cc2ccc3c(c2)-c2nc(C(N)=O)cn2C2CC3C2)o1` was run?
The Ki was > 1250 nM.

How did the Ki turn out when `Cc1cnc([C@](C)(O)C#Cc2ccc3c(c2)-c2nc(C(N)=O)cn2C2CC3C2)o1` was run?
The Ki was 0.9 nM.

How did the Ki turn out when `Cc1cc([C@](C)(O)C#Cc2cc3c(cc2F)C2CC(C2)n2c-3nc(C(N)=O)c2C2CC2)no1` was run?
The Ki was 1.7 nM.

Source: ChEMBL document CHEMBL4304809 (ACS Med Chem Lett, 2019)
